In patent publication US12012394B2, “Alpha-synuclein ligands” (Washington University, priority 2018, dated 2024):

Target: α-synuclein fibrils (Homo sapiens (Human), UniProt P37840)
Assay: Thioflavin T fluorescence competitive assay
Settings: read-out: Thioflavin T assay Ki; competition with ThT on recombinant α-synuclein fibrils; at least three experiments

COc1ccc2nc(-c3noc(-c4cccnc4)n3)ccc2c1
Ki: > 1000 nM
